{
  "source": "patent US20150253323A1",
  "about": "“METHODS AND KITS FOR HIGH THROUGHPUT SCREENING FOR COMPOUNDS TARGETING DNA-BINDING AND RNA-BINDING PROTEINS” (The Florida International University Board of Trustees, priority 2014, published 2015)",
  "test_system": "HMGA2-FL814 interaction",
  "assay": "PDI-ELISA for HMGA2 binding to DNA oligomer FL814",
  "parameters": "species or system mammalian",
  "details": "100 nM compound, 100 nM FL814, 1 μM HMGA2, 2×SSCT; OD450 without drug 1.44",
  "data": [
    {"substance": "quinacrine mustard dihydrochloride", "values": [
      {"measurement": "OD450 of the PDI-ELISA in the presence of the compound", "value": 1.82}
    ]}
  ]
}
